# Yeast mating assay B: variants of the scFv Ab-14

From the AlphaSeq antibody data of Li et al. 2023 (doi:10.1038/s41467-023-39022-2), copy in the FLAb collection.

The target is the same throughout: PDVDLGDISGINAS, from the HR2 region of SARS-CoV-2 spike.

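The parent was found by panning a naive human phage display library on the peptide. This is the validation round: designs drawn from the data on random variants, tested in the same kind of assay. Their group label is 14H_En_HC (En: ensemble of fine-tuned language models; HC: hill climbing; a sequence that several methods proposed may carry one label only). The assay is AlphaSeq: two haploid yeast populations carry antibody and antigen on their surface. After mating in shaken culture at 30 °C for 16 h, diploids were selected and their barcode pairs sequenced. The ratio of observed to expected reads was calibrated, replicate by replicate, on BCL2-family standards whose Kd was known from biolayer interferometry. There are six technical replicates.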

Parent scFv Ab-14: VH joined to VL by the linker GGGGSGGGGSGGGGS. Changes lie in the heavy chain CDRs alone.
VH: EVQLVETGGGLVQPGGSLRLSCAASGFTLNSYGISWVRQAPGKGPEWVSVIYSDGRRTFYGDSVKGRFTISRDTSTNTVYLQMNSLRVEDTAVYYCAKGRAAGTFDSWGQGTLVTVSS
VL: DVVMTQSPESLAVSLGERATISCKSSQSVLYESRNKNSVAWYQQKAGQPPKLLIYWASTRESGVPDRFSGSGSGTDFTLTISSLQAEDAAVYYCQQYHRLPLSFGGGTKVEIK

The parent's heavy chain CDRs are GFTLNSYGIS, VIYSDGRRTFYGDSVK, GRAAGTFDS; each variant's own CDRs replace them letter for letter.
Scale: log10 of Kd in nM, estimated from mating counts; low values are strong binders.
"n.d." marks a missing value. The strain was present, yet no cells mated with the target were sequenced in that replicate, which points to weak or no binding.

CDR-H1,CDR-H2,CDR-H3,"replicates, log10 nM",signal with controls
GFDIDEYGIS,VIYADGKRTFYADSVK,GTNAGTFDS,-0.09 -0.47 -0.40 -0.59 -0.56 -0.50,0 of 18
GFDLNEYGIS,VIYADGMRTFYADSVK,GEVAGTFDE,-0.25 -0.62 -0.37 -0.59 -0.67 -0.45,2 of 18 (1.92)
GFDLNEYGIS,VIYADGRRTFYTDSVK,GGNAGTFDD,1.81 1.79 3.62 1.45 1.97 2.40,1 of 18 (2.54)
GFDLNEYGIS,VIYADGRRTFYTDSVK,GENAGTFDQ,-0.39 0.11 -0.61 -0.52 -0.39 -0.50,0 of 18
GFDLNEYGIS,VIYADGRRTAYADSVK,GQLAGTFDL,0.11 -0.72 -0.26 -0.45 -0.38 -0.05,0 of 18
GFNLNEYGIS,VIYADGRRTAYADSVK,GEAAGTFDS,0.21 0.32 0.21 0.04 -0.06 -0.03,0 of 18
GFDLESYGIS,VIYADGRRTAYADSVK,GNVAGTFDS,0.17 -0.79 n.d. -0.61 -0.79 0.00,0 of 18
GFDLNEYGIS,VIYADGMRTAYSDSVK,GEVAGTFVQ,-0.14 -0.91 -0.43 -0.26 -0.10 -0.68,1 of 18 (0.95)
GFNLDEYGIS,VIYADGRRTFYTDDVK,GEFAGTFDL,0.10 -0.35 -0.38 -0.39 -0.16 -0.36,0 of 18
GFDLNEYGIS,VIYADGRRKFYADKVK,GENAGTFVV,0.02 0.39 -0.23 -0.12 1.00 0.38,1 of 18 (1.73)
GFTLDEYGIS,VIYADGRRTFYADSVK,GNVAGTFDL,-0.37 -0.71 -0.87 -1.01 -0.98 -0.49,0 of 18
GFDLNEYGIS,VIYADGRRTSYKDSVK,GEAAGTFDV,-0.13 -0.09 -0.05 -0.48 -0.09 0.12,1 of 18 (1.38)
GFDLNEYGIS,VIYADGQRKFYADKVK,GENAGTFNV,0.02 -0.16 -0.55 -0.83 -0.52 -0.71,0 of 18
GFDLEDYGIS,VIYADGRRTAYIDSVK,GEIAGTFDV,-0.55 -0.86 -0.59 -1.02 -1.12 -0.35,0 of 18
GFDLNEYGIS,VIYADGRRTFYTDSVK,GQLAGTFDD,-0.80 -0.49 -0.37 -0.58 -0.84 -0.70,0 of 18
GFDLNEYGIS,VIYADGVRTFYTDSVK,GETAGTFDV,-0.45 -0.46 -0.42 -0.89 -0.86 -0.52,0 of 18
GFDLNEYGIS,VIYADGRRTFYSDSVK,GEMGGTFDA,0.99 0.89 0.59 0.54 0.45 1.08,1 of 18 (2.77)
GFDLNEYGIS,VIYADGRRTFYSDSVK,GEAAGTFVM,n.d. n.d. n.d. n.d. 1.91 2.58,0 of 18
GFDLNEYGIS,VIYADGRRTQYIDSVK,GGVAGTFDS,n.d. n.d. n.d. n.d. n.d. n.d.,0 of 18
GFNLNEYGIS,VIYADGRRTFYADSVK,GKAAGTFDV,-0.21 -0.33 -0.08 -0.26 -0.29 0.08,0 of 18
GFDINEYGIS,VIYADGRRTAYADSVK,GEEAGTFDV,-0.28 -0.81 0.27 0.36 -0.51 -0.79,0 of 18
GFDLNEYGIS,VIYADGRRTQYIDSVK,GNNAGTFDV,-0.04 -0.24 -0.20 -0.64 -0.53 -0.14,0 of 18
GFDLNEYGIS,VIYADGVRTFYVDSVK,GETAGTFDA,-0.76 -0.75 -0.76 -0.91 -0.74 0.17,0 of 18
GFDLEDYGIS,VIYADGRRTAYIDSVK,GEAAGTFDM,0.34 -0.14 0.13 -0.01 -0.68 0.77,0 of 18
GFDLNEYGIS,VIYADGRRTFYADSVK,GTQAGTFDQ,-1.44 -0.95 -1.58 -1.25 -1.27 -0.78,0 of 18
GFDLNEYGIS,VIYADGMRTYYIDSVK,GEQAGTFDL,-0.62 -0.65 -0.64 -0.74 0.01 -0.35,0 of 18
GFDLDEYGIS,VIYADGRRTFYADSVK,GEAAGTFDL,0.67 1.43 0.96 1.25 0.85 1.53,0 of 18
GFDLNEYGIS,VIYADGRRTFYADSVK,GENAGTFTL,-0.38 -0.74 -0.86 -0.82 -0.48 -0.88,0 of 18
GFDLNEYGIS,VIYADGRRSFYADSVK,GQLAGTFDT,-0.33 -0.31 -0.48 -0.74 -0.68 -0.53,0 of 18
GFDLNEYGIS,VIYADGRRTFYTDSVK,GGNAGTFDA,-0.28 0.17 -0.65 -0.55 -0.23 -0.37,0 of 18
GFDLNEYGIS,VIYADGRRTFYSDSVK,GSTAGTFDV,-0.37 -0.42 -0.78 -0.68 -0.62 -0.51,0 of 18
GFDLNEYGIS,VIYADGRRTAYSDSVK,GETAGFFDF,n.d. n.d. n.d. n.d. n.d. n.d.,0 of 18
GFNLDEYGIS,VIYADGRRTFYADSVK,GEIAGTFDT,0.01 -0.37 0.31 -0.50 -0.32 -0.20,2 of 18 (1.55)
GFDLNEYGIS,VIYADGQRTAYADSVK,GKVAGTFDE,-0.52 -0.55 -0.68 -0.72 -0.48 -0.56,0 of 18
GFDLNEYGIS,VIYADGRRTAYTDSVK,GQNAGTFDM,-0.40 -0.09 -0.36 -0.64 -0.77 -0.36,0 of 18
GFDLNEYGIS,VIYADGMRTFYSDSVK,GEAAGTFDS,0.00 -0.10 0.12 -0.06 -0.20 -0.09,0 of 18
GFDLNEYGIS,VIYADGRRTQYIDSVK,GEQAGTFDA,n.d. n.d. n.d. n.d. n.d. n.d.,0 of 18
GFDLNEYGIS,VIYADGMRTHYTDSVK,GNEAGTFDE,-0.12 -0.26 -0.55 -0.21 -0.28 -0.27,0 of 18
GFDLNEYGIS,VIYADGVRTFYADNVK,GNVAGTFDL,0.16 -0.09 -0.29 -0.33 -0.06 -0.16,0 of 18
GFNLNEYGIS,VIYADGRRTAYTDDVK,GEFAGTFDL,1.50 0.11 0.83 0.20 0.17 0.69,0 of 18
GFDLNEYGIS,VIYADGRRTFYADSVK,GQHAGTFTL,0.25 -0.44 0.10 -0.14 -0.31 0.10,0 of 18
GFDLDEYGIS,VIYADGQRTFYKDSVK,GSNAGTFDM,0.08 -0.40 -0.41 -0.57 -0.80 -0.66,0 of 18
GFDLNEYGIS,VIYADGRRTFYSDSVK,GTVAGFFDV,n.d. n.d. n.d. n.d. n.d. 1.37,0 of 18
GFDLNEYGIS,VIYADGLRTQYIDSVK,GEAAGTFDL,0.11 0.40 -0.14 0.01 0.59 0.53,0 of 18
GFDLDEYGIS,VIYADGRRTAYQDSVK,GQAAGTFDQ,-0.44 -0.02 -0.40 -0.60 -1.04 -0.13,0 of 18
GFDLNEYGIS,VIYADGRRTFYTDSVK,GEVAGTFDM,-0.34 -0.41 -0.70 -0.33 -0.42 -0.58,0 of 18
GFDLNEYGIS,VIYADGRRTFYTDSVK,GEVAGTFDA,-0.50 -0.52 -0.82 n.d. -0.21 0.42,0 of 18
GFDLNEYGIS,VIYADGMRTFYTDSVK,GELAGTFDS,-0.24 -0.41 -0.70 -0.68 -0.80 -0.59,0 of 18
GFDLNEYGIS,VIYADGRRTFYADSVK,GHVAGTFIQ,1.03 1.57 1.31 1.37 0.72 1.60,0 of 18
GFDLNEYGIS,VIYADGKRSFYADSVK,GQNAGTFDV,-0.29 -0.54 -0.81 -1.03 -0.91 -0.68,1 of 18 (1.30)
GFDLNEYGIS,VIYADGRRTQYIDSVK,GNQAGTFDK,n.d. n.d. n.d. n.d. n.d. n.d.,0 of 18

The first 6 entries again:

CDR-H1,CDR-H2,CDR-H3,"replicates, log10 nM",signal with controls
GFDIDEYGIS,VIYADGKRTFYADSVK,GTNAGTFDS,-0.09 -0.47 -0.40 -0.59 -0.56 -0.50,0 of 18
GFDLNEYGIS,VIYADGMRTFYADSVK,GEVAGTFDE,-0.25 -0.62 -0.37 -0.59 -0.67 -0.45,2 of 18 (1.92)
GFDLNEYGIS,VIYADGRRTFYTDSVK,GGNAGTFDD,1.81 1.79 3.62 1.45 1.97 2.40,1 of 18 (2.54)
GFDLNEYGIS,VIYADGRRTFYTDSVK,GENAGTFDQ,-0.39 0.11 -0.61 -0.52 -0.39 -0.50,0 of 18
GFDLNEYGIS,VIYADGRRTAYADSVK,GQLAGTFDL,0.11 -0.72 -0.26 -0.45 -0.38 -0.05,0 of 18
GFNLNEYGIS,VIYADGRRTAYADSVK,GEAAGTFDS,0.21 0.32 0.21 0.04 -0.06 -0.03,0 of 18

Values of this round are not directly comparable with the first-round values of the same sequences.
In the paper, a design with two or fewer of six values counts as a poor binder.
The parent sequence was in this pool as ten entries: three were never detected, three once, and four in most replicates, with averages from 0.34 to 2.37.
Three control strains display no target. For all heavy chain designs, 1% of the pairings with them gave a signal, with a median of 2.08 and one signal in twenty below 0.84, so weak values seen in few replicates may be background. The control count says in how many pairings with the empty strains this scFv gave a signal, with their mean in brackets.